From PMC9319560 (Viruses, 2022)

Test system: IFN-λ
Assay: Type III interferon quantification using HEK-Blue IFN-λ cells
Type: cell-based, human
Conditions: NHEK, WNV MOI 0.1, 48 h, 1 or 10 µg/mL peptide, HEK-Blue IFN-λ reporter cells, versus infected cells alone; 4 independent experiments

LL-37 was tested, and the “secretion levels of IFNs-λ in the cell culture supernatants” value was “enhanced interferon secretion”.
In the case of “hBD-3 (GIINTLQKYYCRVRGGRCAVLSCLPKEEQIGKCSTRGRKCCRRKK; Beta-defensin 103; UniProt P81534 23-67, looked up) [type 3 human β-defensin, skin antimicrobial peptide; purchased from PeproTech]”, the “secretion levels of IFNs-λ in the cell culture supernatants” value is reported as “increase was significant”.
